# Ab-95 light chain CDR variants: yeast mating affinities

All variants were tested on one target, the spike HR2 peptide PDVDLGDISGINAS (SARS-CoV-2).

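Phage display of a naive human antibody library on the peptide gave the parent. In library AAYL52, one, two or three CDR residues were substituted; doubles and triples were drawn at random. The scFvs were displayed on barcoded MATa yeast, the peptide on MATalpha yeast. The frequency of each diploid, read from paired DNA barcodes, reflects how well the two displayed proteins bind. The ratio of observed to expected reads was calibrated, replicate by replicate, on BCL2-family standards whose Kd was known from biolayer interferometry. There are three technical replicates.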

The variants keep the heavy chain, the linker and the frameworks of Ab-95 (scFv order VH, three GGGGS repeats, VL).
VH: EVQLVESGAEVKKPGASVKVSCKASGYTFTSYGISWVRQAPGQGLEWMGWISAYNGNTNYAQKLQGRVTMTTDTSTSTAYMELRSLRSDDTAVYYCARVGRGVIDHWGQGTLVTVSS
VL: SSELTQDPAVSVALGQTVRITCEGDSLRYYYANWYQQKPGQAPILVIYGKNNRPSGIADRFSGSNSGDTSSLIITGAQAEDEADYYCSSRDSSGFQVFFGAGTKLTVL

Each variant is given by its three light chain CDRs, as the data file delimits them; those of the parent are EGDSLRYYYAN, GKNNRPS, SSRDSSGFQVF.
Each Kd is an estimate from the mating assay, the geometric mean of the replicates in which the pair was seen; lower is stronger.
A pair that was not seen in any replicate is written "not detected"; this usually means weak binding, but a binder can also be missed.

| CDR-L1 | CDR-L2 | CDR-L3 | apparent Kd | seen in |
|---|---|---|---|---|
| EGDSLRYYYAN | GKNNRPS | SSRDWDGFQVF | 610 nM | 3/3 |
| EGDVLRYPYAN | GKNHRPS | SSRDSSGFQVF | 1.4 µM | 3/3 |
| EADSLRYYYAN | GDNNRPS | SSRDSSGFQVP | 360 nM | 3/3 |
| EGDSLRYYYLY | GKNNRPS | SSRDSSGFQVF | 10 µM | 1/3 |
| EGCSLRYVYAN | GKNNRPS | SSRDSSGFQMF | 91 µM | 2/3 |
| EGDSLLYYYAS | GKNRRPS | SSRDSSGFQVF | 4.1 µM | 2/3 |
| EGDSLRYYYAN | NKWNRPS | SSRDSSGFQVF | 14 µM | 1/3 |
| EGDSLRYYYAN | GNNNRPS | SSRQSKGFQVF | 470 nM | 3/3 |
| PGDSLFYYYAN | GKNNRPS | SSRDSSGFQVF | 1.2 µM | 3/3 |
| EGDSLRYYYAN | GKNNRPS | SSRDQYGFQTF | 21 µM | 1/3 |
| EGDSLRYYYHN | GKNNRPS | SSRDSIGFQWF | 350 nM | 3/3 |
| EGDSLRYYYSN | GKNNRPS | SSRDSSGPLVF | not detected | 0/3 |
| EGDSLRYYYAN | GKNNAPS | SSRDSSGFDMF | 450 nM | 3/3 |
| EIDSLQYYYAN | GKNNRPS | SSRDSSGFQVF | 1.1 µM | 2/3 |
| EGDSLRAYYAN | GKNNRPS | SKRGSSGFQVF | 940 nM | 1/3 |
| EGDSLRYYYAK | GKNNMPS | SSRDSRGFQVF | not detected | 0/3 |
| EGDSLRYYYAN | GKNNRPS | YSRDSSGCDVF | 25 µM | 2/3 |
| EKDSLRYYYAN | GKSNRPS | SSRDSSDFQVF | 63 µM | 1/3 |
| AGDSLTYYYAN | GKNNRPS | SSRDSSGFQVF | 150 nM | 3/3 |
| GGDSLRYYYRN | GKNNRPG | SSRDSSGFQVF | 7.0 µM | 3/3 |
| EGDSTRYYYAN | GKNLRPS | SSRDRSGFQVF | 210 nM | 3/3 |
| EGDSLRYYYAN | GKNNRPM | SSRDSSEFGVF | 4.0 µM | 2/3 |
| EGDSLRYYVAN | GKNNRPP | DSRDSSGFQVF | 88 µM | 2/3 |
| EGDSTRYYYAN | PKNNIPS | SSRDSSGFQVF | 1.1 µM | 1/3 |
| EGDSSRYYYAS | GKNNRPS | SSRDSSGFQVC | 2.2 µM | 1/3 |
| EGPSLRYYYAN | GRNNRPS | SSRDSSGFQVL | 200 nM | 3/3 |
| EGDSLRIAYAN | GKNNRPS | SSSDSSGFQVF | 13 µM | 1/3 |
| EGDSLRYYYAI | GKNNRPS | SSRDSSGAQRF | not detected | 0/3 |
| EGDSLWYYYAN | GKNNCPS | SSRDSWGFQVF | not detected | 0/3 |
| EGDSLEYYYAN | GKNNRPS | SSRDSGGFQVW | 870 nM | 3/3 |
| YGDSLRYYYAL | GGNNRPS | SSRDSSGFQVF | 48 µM | 1/3 |
| PGDSLRYYYAN | GKNNRPS | SSRDKSAFQVF | 1.8 µM | 1/3 |
| ERDSLRYYYAN | GKNNRPS | SSRDSEGFVVF | 13 µM | 1/3 |
| EGDSLRYYYAN | GSNNRPS | HSPDSSGFQVF | 48 µM | 1/3 |
| EGDSLRYFYAN | GKNNRPS | SSRDSQGFQVF | 940 nM | 2/3 |
| EGKSLRTYYIN | GKNNRPS | SSRDSSGFQVF | 3.2 µM | 3/3 |
| EGDRLRYYYAN | GYNNRPS | SSRDSGGFQVF | 72 µM | 3/3 |
| EFDSIRYYYAN | GKNNRPS | SSRDSSGFQVF | 970 nM | 2/3 |
| EGDSLRYYVAN | GKRNRPS | SSRDSSGLQVF | not detected | 0/3 |
| EGDSLRYYYAN | GKNNRYS | SMRDSIGFQVF | 4.4 µM | 1/3 |
| GGDRDRYYYAN | GKNNRPS | SSRDSSGFQVF | 560 nM | 3/3 |
| EGDSLVYYYAN | HKNNRPS | SSRDSSKFQVF | 11 µM | 2/3 |
| EGDSWRYRYAN | GKNNRPS | SSSDSSGFQVF | 26 µM | 3/3 |
| YGDSLRYYYCN | GKNCRPS | SSRDSSGFQVF | 3.2 µM | 3/3 |
| EGDSLRYYYAC | GYNNRPS | SSRDSSGFMVF | 52 µM | 3/3 |
| ELDSLRYYYAN | GKNNAPS | SSRDSSTFQVF | not detected | 0/3 |
| EGDSLRYCYAN | GKNNRPS | SIRDSSGFQWF | not detected | 0/3 |
| EGDSLRYYYAN | GKNNRCS | SFRDASGFQVF | 8.3 µM | 3/3 |
| EGDSLRYYYAK | GKNNRPS | SSEDSSGWQVF | 14 µM | 1/3 |
| EGDSLRYYYAN | VKNNRPS | SSVDSSGFQVP | 8.2 µM | 2/3 |
| EGDSLRYYIAN | GKNNNPS | SSRGSSGFQVF | 5.7 µM | 2/3 |
| EGDSLRYYYIN | GKNNRPS | ESRDTSGFQVF | 7.2 µM | 3/3 |
| EGDSLRMYYAN | GKNNRLS | SSKDSSGFQVF | not detected | 0/3 |
| EGDSTRYYYAN | GKNAIPS | SSRDSSGFQVF | not detected | 0/3 |
| EGDSQRYYYAN | PKNNRPS | SSRDSSKFQVF | 9.5 µM | 1/3 |
| EGNWLRYYYAN | GKNNRPS | SSRDSSGFQVF | 320 nM | 3/3 |
| EGDSLRYDYAN | NKNNRPS | SVRDSSGFQVF | 120 nM | 3/3 |

The closing 3 entries, repeated:

| CDR-L1 | CDR-L2 | CDR-L3 | apparent Kd | seen in |
|---|---|---|---|---|
| EGDSQRYYYAN | PKNNRPS | SSRDSSKFQVF | 9.5 µM | 1/3 |
| EGNWLRYYYAN | GKNNRPS | SSRDSSGFQVF | 320 nM | 3/3 |
| EGDSLRYDYAN | NKNNRPS | SVRDSSGFQVF | 120 nM | 3/3 |

Empty control strains, which show no peptide, gave a signal in 28% of pairings with library AAYL52; the median was 8.2 µM and 95% of these signals were weaker than 800 nM. No background was subtracted.

From the AlphaSeq antibody data of Engelhart et al. 2022 (doi:10.1038/s41597-022-01779-4), copy in the FLAb collection.